Permeability data for macrocyclic peptides

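The data file gives no further conditions (lipid, pH, time, direction or concentration), and values from different papers need not be comparable. Other peptides of the study may be missing here. Peptides that the database sets to -10, its floor, are left out.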

PAMPA measures passive passage through an artificial lipid membrane.
Permeability is in 10^-6 cm/s, converted from the database's log10 values; higher is more permeable.

| PAMPA (10^-6 cm/s) | structure (SMILES) |
|---|---|
| 1.7 | CC(C)C[C@@H]1NC(=O)[C@@H](C)NC(=O)[C@H](Cc2ccccc2)NC(=O)CN(Cc2ccccc2)C(=O)[C@@H]2CCCN2C(=O)[C@@H](CC(C)C)N(C)C1=O |
| 4.2 | CC(C)C[C@@H]1C(=O)N[C@@H](Cc2ccccc2)C(=O)N2CCC[C@@H]2C(=O)N[C@@H](Cc2ccccc2)CC(=O)N[C@H](CC(C)C)C(=O)N(Cc2ccccc2)CC(=O)N2CCC[C@@H]2C(=O)N1C |
| 0.4 | CC(C)C[C@@H]1C(=O)N(Cc2ccccc2)CC(=O)N2CCC[C@H]2C(=O)N[C@H](CC(C)C)C(=O)N[C@@H](Cc2ccccc2)C(=O)N[C@@H](C)C(=O)N1C |
| 4.7 | CCCN1CC(=O)N[C@@H](CC(C)C)C(=O)N(C)[C@@H](CC(C)C)C(=O)N2CCC[C@H]2C(=O)N[C@@H](CC(C)C)C(=O)N[C@@H](Cc2ccccc2)C(=O)N2CCC[C@@H]2C1=O |
| 4.1 | CC(C)C[C@@H]1NC(=O)[C@H](CC(C)C)N(C)C(=O)C[C@H](Cc2ccccc2)NC(=O)[C@H](Cc2ccccc2)NC(=O)CN(Cc2ccccc2)C(=O)[C@@H]2CCCN2C1=O |
| 2.8 | CC(C)C[C@@H]1NC(=O)[C@H]2CCCN2C(=O)[C@H](CC(C)C)N(C)C(=O)[C@@H](CC(C)C)N(C)C(=O)[C@@H](C)N(C)C(=O)[C@H](Cc2ccccc2)NC1=O |
| 0.33 | CC(C)C[C@@H]1NC(=O)[C@@H](CC(C)C)NC(=O)[C@@H](C)NC(=O)[C@@H]2CCCN2C(=O)[C@H](Cc2ccccc2)NC(=O)CN(Cc2ccccc2)C(=O)[C@@H]2CCCN2C1=O |
| 13 | CC(C)C[C@@H]1NC(=O)[C@@H](CC(C)C)NC(=O)[C@H](C)N(C)C(=O)[C@H](Cc2ccccc2)NC(=O)[C@H](CC(C)C)N(C)C(=O)[C@H]2CCCN2C1=O |
| 3.3 | CC(C)C[C@H]1NC(=O)[C@H](C)N(C)C(=O)[C@H]2CCCN2C(=O)[C@H](Cc2ccccc2)NC(=O)CN(Cc2ccccc2)C(=O)[C@H]2CCCN2C(=O)[C@H](CC(C)C)N(C)C1=O |
| 1.5 | CCCN1CC(=O)N[C@H](CC(C)C)C(=O)N[C@H](CC(C)C)C(=O)N2CCC[C@@H]2C(=O)N(C)[C@H](CC(C)C)C(=O)N[C@@H](Cc2ccccc2)C(=O)N2CCC[C@H]2C1=O |
| 2.7 | CC(C)C[C@@H]1NC(=O)[C@H](C)NC(=O)[C@H]2CCCN2C(=O)[C@H](Cc2ccccc2)NC(=O)[C@H](CC(C)C)N(C)C(=O)[C@H]2CCCN2C(=O)[C@H](CC(C)C)N(C)C1=O |
| 6.6 | CCCN1CC(=O)N[C@H](CC(C)C)C(=O)N[C@@H](CC(C)C)C(=O)N2CCC[C@@H]2C(=O)N[C@H](CC(C)C)C(=O)N[C@@H](Cc2ccccc2)C1=O |
| 0.47 | CC(C)C[C@H]1NC(=O)[C@H]2CCCN2C(=O)C[C@H](Cc2ccccc2)NC(=O)[C@@H](CC(C)C)NC(=O)[C@H](C)N(C)C(=O)[C@H]2CCCN2C(=O)[C@H](Cc2ccccc2)NC1=O |
| 9.1 | CCCN1CC(=O)N(C)[C@H](CC(C)C)C(=O)N[C@H](CC(C)C)C(=O)N2CCC[C@H]2C(=O)N(C)[C@H](CC(C)C)C(=O)N[C@@H](Cc2ccccc2)C(=O)N2CCC[C@H]2C1=O |
| 1.2 | CC(C)C[C@@H]1NC(=O)[C@@H]2CCCN2C(=O)CN(Cc2ccccc2)C(=O)[C@H](CC(C)C)NC(=O)[C@@H](C)N(C)C(=O)[C@@H]2CCCN2C(=O)[C@H](Cc2ccccc2)NC1=O |
| 2.2 | CC(C)C[C@H]1NC(=O)C[C@H](Cc2ccccc2)NC(=O)[C@H]2CCCN2C(=O)[C@H](Cc2ccccc2)NC(=O)CN(Cc2ccccc2)C(=O)[C@@H]2CCCN2C(=O)[C@H](CC(C)C)N(C)C1=O |
| 1.4 | CC(C)C[C@H]1NC(=O)[C@H]2CCCN2C(=O)CN(Cc2ccccc2)C(=O)[C@@H](CC(C)C)NC(=O)C[C@H](Cc2ccccc2)NC(=O)[C@@H]2CCCN2C(=O)[C@H](Cc2ccccc2)NC1=O |
| 4.8 | CCCN1CC(=O)N[C@@H](CC(C)C)C(=O)N[C@H](CC(C)C)C(=O)N2CCC[C@H]2C(=O)N(C)[C@H](CC(C)C)C(=O)N[C@@H](Cc2ccccc2)C(=O)N2CCC[C@H]2C1=O |
| 0.89 | CC(C)C[C@@H]1NC(=O)[C@@H](C)N(C)C(=O)[C@@H]2CCCN2C(=O)[C@H](Cc2ccccc2)NC(=O)CN(Cc2ccccc2)C(=O)[C@H]2CCCN2C(=O)[C@@H](CC(C)C)N(C)C1=O |
| 1.9 | CC(C)C[C@H]1NC(=O)[C@H](C)N(C)C(=O)[C@H](Cc2ccccc2)NC(=O)CN(Cc2ccccc2)C(=O)[C@H]2CCCN2C(=O)CN(Cc2ccccc2)C1=O |
| 3.1 | CC(C)C[C@@H]1C(=O)N[C@@H](Cc2ccccc2)C(=O)N2CCC[C@@H]2C(=O)N(C)[C@@H](C)C(=O)N(Cc2ccccc2)CC(=O)N(C)[C@@H](CC(C)C)C(=O)N2CCC[C@@H]2C(=O)N1C |
| 1.7 | CC(C)C[C@@H]1NC(=O)[C@@H](CC(C)C)N(C)C(=O)[C@@H](C)N(C)C(=O)[C@H]2CCCN2C(=O)[C@H](Cc2ccccc2)NC(=O)[C@H](CC(C)C)N(C)C(=O)[C@H]2CCCN2C1=O |
| 7.4 | CC(C)C[C@H]1NC(=O)C[C@H](Cc2ccccc2)NC(=O)[C@H](Cc2ccccc2)NC(=O)[C@H](CC(C)C)N(C)C(=O)[C@@H]2CCCN2C(=O)[C@@H](CC(C)C)NC1=O |

Extract of 4 entries:

| structure (SMILES) | PAMPA (10^-6 cm/s) |
|---|---|
| CC(C)C[C@H]1NC(=O)C[C@H](Cc2ccccc2)NC(=O)[C@H]2CCCN2C(=O)[C@H](Cc2ccccc2)NC(=O)CN(Cc2ccccc2)C(=O)[C@@H]2CCCN2C(=O)[C@H](CC(C)C)N(C)C1=O | 2.2 |
| CC(C)C[C@H]1NC(=O)[C@H]2CCCN2C(=O)C[C@H](Cc2ccccc2)NC(=O)[C@@H](CC(C)C)NC(=O)[C@H](C)N(C)C(=O)[C@H]2CCCN2C(=O)[C@H](Cc2ccccc2)NC1=O | 0.47 |
| CC(C)C[C@@H]1C(=O)N(Cc2ccccc2)CC(=O)N2CCC[C@H]2C(=O)N[C@H](CC(C)C)C(=O)N[C@@H](Cc2ccccc2)C(=O)N[C@@H](C)C(=O)N1C | 0.4 |
| CC(C)C[C@@H]1NC(=O)[C@H](CC(C)C)N(C)C(=O)C[C@H](Cc2ccccc2)NC(=O)[C@H](Cc2ccccc2)NC(=O)CN(Cc2ccccc2)C(=O)[C@@H]2CCCN2C1=O | 4.1 |

Source: CycPeptMPDB (Li et al. 2023), which took these values from Townsend et al. 2020, doi:10.26434/chemrxiv.13335941.v1.